# Reference: patent US20090099157A1, “TETRAHYDRO-PYRAZOLO-PYRIDINE THIOETHER MODULATORS OF CATHEPSIN S” (priority 2007, published 2009)
# Amino acid sequences for entries named in this document (tags omitted). Residues count along the entry.
# UniProt P25774, 115-331: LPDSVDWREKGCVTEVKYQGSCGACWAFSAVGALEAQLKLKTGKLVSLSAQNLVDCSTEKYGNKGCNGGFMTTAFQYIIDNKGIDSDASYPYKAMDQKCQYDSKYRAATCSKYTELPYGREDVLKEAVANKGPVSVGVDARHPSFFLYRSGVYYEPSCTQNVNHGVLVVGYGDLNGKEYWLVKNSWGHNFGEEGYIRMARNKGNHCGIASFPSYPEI
# Molecular target: Recombinant human cathepsin S (CatS) (Homo sapiens, UniProt P25774)
# Assay: biochemical
row,Compound,IC50
1,"CCS(=O)(=O)N1CCc2c(c(-c3ccc(C(F)(F)F)c(SCCN4CCCCC4)c3)nn2CC(O)CN2CCC(N3CCCC3=O)CC2)C1 (stereo not shown) [Example 235, 1-(1-{3-[5-(Ethylsulfonyl)-3-{3-[(2-piperidin-1-ylethyl)sulfanyl]-4-(trifluoromethyl)phenyl}-4,5,6,7-tetrahydro-1H-pyrazolo[4,3-c]pyridin-1-yl]-2-hydroxypropyl}piperidin-4-yl)pyrrolidin-2-one]",40 nM
2,"CCCNCCSc1cc(-c2nn(CCCN3CCC(N4CCCC4=O)CC3)c3c2CN(S(C)(=O)=O)CC3)ccc1C(F)(F)F [Example 531, 1-[1-(3-{5-(Methylsulfonyl)-3-[3-{[2-(propylamino)ethyl]sulfanyl}-4-(trifluoromethyl)phenyl]-4,5,6,7-tetrahydro-1H-pyrazolo[4,3-c]pyridin-1-yl}propyl)piperidin-4-yl]pyrrolidin-2-one]",190 nM
3,"CS(=O)(=O)N1CCc2c(c(-c3ccc(C(F)(F)F)c(SCC(=O)N4CC[C@@H](O)C4)c3)nn2CC(O)CN2CCC(c3ccccn3)CC2)C1 (stereo partly drawn) [Example 713, (3R)-1-({[5-{1-[2-Hydroxy-3-(4-pyridin-2-ylpiperidin-1-yl)propyl]-5-(methylsulfonyl)-4,5,6,7-tetrahydro-1H-pyrazolo[4,3-c]pyridin-3-yl}-2-(trifluoromethyl)phenyl]sulfanyl}acetyl)pyrrolidin-3-ol]",4 nM
4,"CS(=O)(=O)N1CCc2c(c(-c3ccc(C(F)(F)F)c(SCC(=O)N4CCC5CCCCC5C4)c3)nn2CCCN2CCC(N3CCCC3=O)CC2)C1 (stereo not shown) [Example 80, 1-{1-[3-(5-Methanesulfonyl-3-{3-[2-(octahydro-isoquinolin-2-yl)-2-oxo-ethylsulfanyl]-4-trifluoromethyl-phenyl}-4,5,6,7-tetrahydro-pyrazolo[4,3-c]pyridin-1-yl)-propyl]-piperidin-4-yl}-pyrrolidin-2-one]",180 nM
5,"CC(C)(C)OC(=O)N1CCC(CC(=O)N2CCc3c(c(-c4ccc(C(F)(F)F)c(SCCN5CCCC5)c4)nn3CC(O)CN3CCC(NC(=O)CO)CC3)C2)CC1 (stereo not shown) [Example 895, 1,1-Dimethylethyl 4-{2-[1-(2-hydroxy-3-{4-[(hydroxyacetyl)amino]piperidin-1-yl}propyl)-3-{3-[(2-pyrrolidin-1-ylethyl)sulfanyl]-4-(trifluoromethyl)phenyl}-1,4,6,7-tetrahydro-5H-pyrazolo[4,3-c]pyridin-5-yl]-2-oxoethyl}piperidine-1-carboxylate]",540 nM
6,"CC1CCN(CCSc2cc(-c3nn(C[C@@H](O)CN4CCCCC4)c4c3CN(C(=O)C(N)=O)CC4)ccc2C(F)(F)F)CC1 [Example 359, 2-{1-[(2S)-2-Hydroxy-3-piperidin-1-ylpropyl]-3-[3-{[2-(4-methylpiperidin-1-yl)ethyl]sulfanyl}-4-(trifluoromethyl)phenyl]-1,4,6,7-tetrahydro-5H-pyrazolo[4,3-c]pyridin-5-yl}-2-oxoacetamide]",140 nM
7,"CS(=O)(=O)N1CCc2c(c(-c3ccc(C(F)(F)F)c(SCCNC4CCCC4)c3)nn2CC(O)CN2CCCCC2)C1 (stereo not shown) [Example 346, 1-{3-[3-{[2-(Cyclopentylamino)ethyl]sulfanyl}-4-(trifluoromethyl)phenyl]-5-(methylsulfonyl)-4,5,6,7-tetrahydro-1H-pyrazolo[4,3-c]pyridin-1-yl}-3-piperidin-1-ylpropan-2-ol]",370 nM
8,"CS(=O)(=O)N1CCc2c(c(-c3ccc(C(F)(F)F)c(SCC(=O)N4CCOCC4)c3)nn2CCCN2CCC(N3CCCC3)CC2)C1 [Example 110, 2-(5-{5-Methanesulfonyl-1-[3-(4-pyrrolidin-1-yl-piperidin-1-yl)-propyl]-4,5,6,7-tetrahydro-1H-pyrazolo[4,3-c]pyridin-3-yl}-2-trifluoromethyl-phenylsulfanyl)-1-morpholin-4-yl-ethanone]",400 nM
9,"CC(=O)N1CCc2c(c(-c3ccc(C(F)(F)F)c(SCC(=O)N4CCCC4)c3)nn2CC(O)CN2CC3CCCC3C2)C1 (stereo not shown) [Example 329, 1-(5-Acetyl-3-{3-[(2-oxo-2-pyrrolidin-1-ylethyl)sulfanyl]-4-(trifluoromethyl)phenyl}-4,5,6,7-tetrahydro-1H-pyrazolo[4,3-c]pyridin-1-yl)-3-(hexahydrocyclopenta[c]pyrrol-2(1H)-yl)propan-2-ol]",170 nM
10,"CS(=O)(=O)NC1CCN(CC(O)Cn2nc(-c3ccc(C(F)(F)F)c(SCCN4CCOC(CO)C4)c3)c3c2CCN(S(C)(=O)=O)C3)CC1 (stereo not shown) [Example 843, N-[1-(2-Hydroxy-3-{3-[3-({2-[2-(hydroxymethyl)morpholin-4-yl]ethyl}sulfanyl)-4-(trifluoromethyl)phenyl]-5-(methylsulfonyl)-4,5,6,7-tetrahydro-1H-pyrazolo[4,3-c]pyridin-1-yl}propyl)piperidin-4-yl]methanesulfonamide]",190 nM
11,"CN1CCc2c(c(-c3ccc(C(F)(F)F)c(SCCN4CCCC4)c3)nn2C[C@@H](O)CN2CCC(N3C[C@H](O)CC3=O)CC2)C1 [Example 420, (4R)-4-Hydroxy-1-{1-[(2S)-2-hydroxy-3-(5-methyl-3-{3-[(2-pyrrolidin-1-ylethyl)sulfanyl]-4-(trifluoromethyl)phenyl}-4,5,6,7-tetrahydro-1H-pyrazolo[4,3-c]pyridin-1-yl)propyl]piperidin-4-yl}pyrrolidin-2-one]",8080 nM
12,"CS(=O)(=O)N1CCc2c(c(-c3ccc(C(F)(F)F)c(SCC(=O)NC4CCCC4)c3)nn2CC(O)CN2CCC(C(=O)N3CCOCC3)CC2)C1 (stereo not shown) [Example 846, N-Cyclopentyl-2-({5-[1-{2-hydroxy-3-[4-(morpholin-4-ylcarbonyl)piperidin-1-yl]propyl}-5-(methylsulfonyl)-4,5,6,7-tetrahydro-1H-pyrazolo[4,3-c]pyridin-3-yl]-2-(trifluoromethyl)phenyl}sulfanyl)acetamide]",480 nM
13,"CS(=O)(=O)N1CCc2c(c(-c3ccc(C(F)(F)F)c(SCCN4CCCCC4)c3)nn2CC(O)CN2CCN(c3ccccc3C#N)CC2)C1 (stereo not shown) [Example 156, 2-(4-{2-Hydroxy-3-[5-(methylsulfonyl)-3-{3-[(2-piperidin-1-ylethyl)sulfanyl]-4-(trifluoromethyl)phenyl}-4,5,6,7-tetrahydro-1H-pyrazolo[4,3-c]pyridin-1-yl]propyl}piperazin-1-yl)benzonitrile]",10 nM
14,"CS(=O)(=O)N1CCc2c(c(-c3ccc(C(F)(F)F)c(SCCN4CCC(F)CC4)c3)nn2CC(O)CN2CCC(O)CC2)C1 (stereo not shown) [Example 488, 1-(3-{3-[3-{[2-(4-Fluoropiperidin-1-yl)ethyl]sulfanyl}-4-(trifluoromethyl)phenyl]-5-(methylsulfonyl)-4,5,6,7-tetrahydro-1H-pyrazolo[4,3-c]pyridin-1-yl}-2-hydroxypropyl)piperidin-4-ol]",320 nM
15,"O[C@@H](CN1CCC(c2ccccn2)CC1)Cn1nc(-c2ccc(C(F)(F)F)c(SCCN3CCC(F)CC3)c2)c2c1CCNC2 [Example 233, (2S)-1-{3-[3-{[2-(4-Fluoropiperidin-1-yl)ethyl]sulfanyl}-4-(trifluoromethyl)phenyl]-4,5,6,7-tetrahydro-1H-pyrazolo[4,3-c]pyridin-1-yl}-3-(4-pyridin-2-ylpiperidin-1-yl)propan-2-ol]",170 nM
16,"CS(=O)(=O)N1CCc2c(c(-c3ccc(C(F)(F)F)c(SCCN4CCCC(CO)C4)c3)nn2CCCN2CCC(N3CCCC3=O)CC2)C1 (stereo not shown) [Example 13, 1-{1-[3-(3-{3-[2-(3-Hydroxymethyl-piperidin-1-yl)-ethylsulfanyl]-4-trifluoromethyl-phenyl}-5-methanesulfonyl-4,5,6,7-tetrahydro-pyrazolo[4,3-c]pyridin-1-yl)-propyl]-piperidin-4-yl}-pyrrolidin-2-one]",150 nM
17,"CC1CCN(CC(O)Cn2nc(-c3ccc(C(F)(F)F)c(SCC(=O)N4CCCC4)c3)c3c2CCNC3)CC1 (stereo not shown) [Example 293, 1-(4-Methylpiperidin-1-yl)-3-(3-{3-[(2-oxo-2-pyrrolidin-1-ylethyl)sulfanyl]-4-(trifluoromethyl)phenyl}-4,5,6,7-tetrahydro-1H-pyrazolo[4,3-c]pyridin-1-yl)propan-2-ol]",2540 nM
18,"CS(=O)(=O)N1CCc2c(c(-c3ccc(C(F)(F)F)c(SCCN4CC[C@H](F)C4)c3)nn2C[C@@H](O)CN2CCC(N3C[C@@H](O)CC3=O)CC2)C1 [Example 766, (4S)-1-{1-[(2S)-3-{3-[3-({2-[(3S)-3-Fluoropyrrolidin-1-yl]ethyl}sulfanyl)-4-(trifluoromethyl)phenyl]-5-(methylsulfonyl)-4,5,6,7-tetrahydro-1H-pyrazolo[4,3-c]pyridin-1-yl}-2-hydroxypropyl]piperidin-4-yl}-4-hydroxypyrrolidin-2-one]",280 nM
19,"CS(=O)(=O)N1CCc2c(c(-c3ccc(C(F)(F)F)c(SCC(=O)N4CC=C(c5ccccc5)CC4)c3)nn2CCCN2CCC(N3CCCC3=O)CC2)C1 [Example 106, 1-{1-[3-(5-Methanesulfonyl-3-{3-[2-oxo-2-(4-phenyl-3,6-dihydro-2H-pyridin-1-yl)-ethylsufanyl]-4-trifluoromethyl-phenyl}-4,5,6,7-tetrahydro-pyrazolo[4,3-c]pyridin-1-yl)-propyl]-piperidin-4-yl}-pyrrolidin-2-one]",290 nM
20,"COc1ccccc1N1CCN(C[C@H](O)Cn2nc(-c3ccc(C(F)(F)F)c(SCCN4CCC(F)CC4)c3)c3c2CCNC3)CC1 [Example 567, (2S)-1-{3-[3-{[2-(4-Fluoropiperidin-1-yl)ethyl]sulfanyl}-4-(trifluoromethyl)phenyl]-4,5,6,7-tetrahydro-1H-pyrazolo[4,3-c]pyridin-1-yl}-3-{4-[2-(methyloxy)phenyl]piperazin-1-yl}propan-2-ol]",410 nM
21,"CS(=O)(=O)N1CCc2c(c(-c3ccc(C(F)(F)F)c(SCCN4CCCC(F)C4)c3)nn2C[C@@H](O)CN2CCC(NC(=O)CO)CC2)C1 (stereo partly drawn) [Example 705, N-{1-[(2S)-3-{3-[3-{[2-(3-Fluoropiperidin-1-yl)ethyl]sulfanyl}-4-(trifluoromethyl)phenyl]-5-(methylsulfonyl)-4,5,6,7-tetrahydro-1H-pyrazolo[4,3-c]pyridin-1-yl}-2-hydroxypropyl]piperidin-4-yl}-2-hydroxyacetamide]",65 nM
22,"CS(=O)(=O)N1CCc2c(c(-c3ccc(C(F)(F)F)c(SCCN4CCOCC4)c3)nn2CC(O)CN2CCN(c3ccccc3)CC2)C1 (stereo not shown) [Example 665, 1-[5-(Methylsulfonyl)-3-{3-[(2-morpholin-4-ylethyl)sulfanyl]-4-(trifluoromethyl)phenyl}-4,5,6,7-tetrahydro-1H-pyrazolo[4,3-c]pyridin-1-yl]-3-(4-phenylpiperazin-1-yl)propan-2-ol]",65 nM
